Key:
[1] = target: T1, Nitric oxide synthase, inducible (Mus musculus, UniProt P29477); test: Inhibition of mouse iNOS expressed in Escherichia coli assessed as reduction in formation of nitric oxide by hemoglobin capture assay
T1 sequence (P29477 whole entry): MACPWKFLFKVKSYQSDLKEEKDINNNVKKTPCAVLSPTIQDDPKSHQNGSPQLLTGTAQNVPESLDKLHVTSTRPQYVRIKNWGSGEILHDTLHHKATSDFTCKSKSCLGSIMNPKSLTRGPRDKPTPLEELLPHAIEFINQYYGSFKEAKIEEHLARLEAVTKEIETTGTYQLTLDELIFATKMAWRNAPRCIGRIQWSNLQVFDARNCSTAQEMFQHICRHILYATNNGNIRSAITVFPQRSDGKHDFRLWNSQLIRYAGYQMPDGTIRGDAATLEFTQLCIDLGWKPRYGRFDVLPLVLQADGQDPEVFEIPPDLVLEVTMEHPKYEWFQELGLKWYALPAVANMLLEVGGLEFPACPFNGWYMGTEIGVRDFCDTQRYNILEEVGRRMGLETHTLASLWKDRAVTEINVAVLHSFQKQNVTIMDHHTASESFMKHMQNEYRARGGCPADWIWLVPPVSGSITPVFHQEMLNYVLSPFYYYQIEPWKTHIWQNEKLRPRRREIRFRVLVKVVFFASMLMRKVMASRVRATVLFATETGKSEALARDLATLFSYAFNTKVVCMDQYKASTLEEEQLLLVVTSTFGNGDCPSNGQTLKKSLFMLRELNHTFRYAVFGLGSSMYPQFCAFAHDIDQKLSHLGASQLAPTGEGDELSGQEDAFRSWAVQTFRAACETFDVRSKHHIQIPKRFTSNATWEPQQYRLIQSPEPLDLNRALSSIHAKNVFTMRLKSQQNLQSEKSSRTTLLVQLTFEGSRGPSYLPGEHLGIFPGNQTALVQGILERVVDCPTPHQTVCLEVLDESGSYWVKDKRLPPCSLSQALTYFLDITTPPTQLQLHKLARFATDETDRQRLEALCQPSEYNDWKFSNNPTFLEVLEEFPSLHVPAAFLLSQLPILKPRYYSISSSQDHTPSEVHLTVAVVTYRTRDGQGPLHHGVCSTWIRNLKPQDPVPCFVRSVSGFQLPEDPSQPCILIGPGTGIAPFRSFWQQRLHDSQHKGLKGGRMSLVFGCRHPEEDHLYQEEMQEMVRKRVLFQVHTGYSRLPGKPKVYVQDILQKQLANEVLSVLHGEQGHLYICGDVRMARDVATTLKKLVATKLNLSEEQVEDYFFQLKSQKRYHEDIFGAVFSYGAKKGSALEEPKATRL
Method in brief: (§1)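 Ki was calculated from directly measured IC50 values, with each IC50 measured at least in duplicate and standard deviations of ±10%.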

[2] = target: T2, Nitric oxide synthase 3 (Bos taurus, UniProt P29473); test: Inhibition of bovine eNOS expressed in Escherichia coli assessed as reduction in formation of nitric oxide by hemoglobin capture assay; method in brief: as §1
T2 sequence (P29473 whole entry): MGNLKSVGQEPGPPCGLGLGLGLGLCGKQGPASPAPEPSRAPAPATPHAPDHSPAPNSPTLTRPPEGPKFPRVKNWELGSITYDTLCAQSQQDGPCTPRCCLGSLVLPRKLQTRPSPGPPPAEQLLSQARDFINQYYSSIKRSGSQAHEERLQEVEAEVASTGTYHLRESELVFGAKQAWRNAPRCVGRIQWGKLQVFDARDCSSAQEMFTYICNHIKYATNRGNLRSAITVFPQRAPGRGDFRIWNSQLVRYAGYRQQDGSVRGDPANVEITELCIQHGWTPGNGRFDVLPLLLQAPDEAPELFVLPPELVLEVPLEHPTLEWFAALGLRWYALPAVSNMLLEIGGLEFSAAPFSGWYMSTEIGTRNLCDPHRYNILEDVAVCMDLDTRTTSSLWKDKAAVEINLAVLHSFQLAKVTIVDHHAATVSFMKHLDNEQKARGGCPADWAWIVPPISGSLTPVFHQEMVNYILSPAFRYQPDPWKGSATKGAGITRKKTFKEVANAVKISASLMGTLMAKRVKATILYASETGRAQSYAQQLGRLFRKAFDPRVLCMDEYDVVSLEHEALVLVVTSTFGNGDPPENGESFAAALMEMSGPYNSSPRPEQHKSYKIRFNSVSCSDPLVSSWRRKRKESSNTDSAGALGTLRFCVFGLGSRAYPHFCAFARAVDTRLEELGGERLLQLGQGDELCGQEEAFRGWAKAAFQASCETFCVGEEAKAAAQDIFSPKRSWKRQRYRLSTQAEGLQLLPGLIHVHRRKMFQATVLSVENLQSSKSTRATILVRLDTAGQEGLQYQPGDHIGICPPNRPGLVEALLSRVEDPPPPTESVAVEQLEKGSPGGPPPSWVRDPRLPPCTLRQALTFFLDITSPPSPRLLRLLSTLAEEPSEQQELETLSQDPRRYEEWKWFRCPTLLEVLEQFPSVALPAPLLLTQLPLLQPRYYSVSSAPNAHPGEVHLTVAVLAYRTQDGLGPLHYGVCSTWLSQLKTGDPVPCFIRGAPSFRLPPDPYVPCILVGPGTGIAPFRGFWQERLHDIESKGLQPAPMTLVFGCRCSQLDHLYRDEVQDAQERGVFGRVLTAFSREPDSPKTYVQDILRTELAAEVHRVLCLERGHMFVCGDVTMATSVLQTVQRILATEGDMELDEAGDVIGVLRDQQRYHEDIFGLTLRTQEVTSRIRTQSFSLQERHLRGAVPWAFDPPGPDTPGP

Ki [1]: 17 µM
Ki [2]: 17 µM
SMILES: Cc1cc(N)nc(C[C@@H]2CNC[C@@H]2OCCNCC(F)(F)c2cc(F)cc(Cl)c2)c1

— ChEMBL document CHEMBL1821707, “Improved synthesis of chiral pyrrolidine inhibitors and their binding properties to neuronal nitric oxide synthase” (J Med Chem, 2011)
